Reference: patent US20250340560A1, “SUBSTITUTED PYRAZOLO[1,5-a]PYRIMIDINES AS BRUTON'S TYROSINE KINASE MODULATORS” (BEIGENE SWITZERLAND GMBH, priority 2013, published 2025)

Protein sequences, listed by entry. Tags and fused reporters are not part of them. Lines headed by an entry give the natural chain unless they say otherwise; changes in a name come on top.
UniProt Q06187: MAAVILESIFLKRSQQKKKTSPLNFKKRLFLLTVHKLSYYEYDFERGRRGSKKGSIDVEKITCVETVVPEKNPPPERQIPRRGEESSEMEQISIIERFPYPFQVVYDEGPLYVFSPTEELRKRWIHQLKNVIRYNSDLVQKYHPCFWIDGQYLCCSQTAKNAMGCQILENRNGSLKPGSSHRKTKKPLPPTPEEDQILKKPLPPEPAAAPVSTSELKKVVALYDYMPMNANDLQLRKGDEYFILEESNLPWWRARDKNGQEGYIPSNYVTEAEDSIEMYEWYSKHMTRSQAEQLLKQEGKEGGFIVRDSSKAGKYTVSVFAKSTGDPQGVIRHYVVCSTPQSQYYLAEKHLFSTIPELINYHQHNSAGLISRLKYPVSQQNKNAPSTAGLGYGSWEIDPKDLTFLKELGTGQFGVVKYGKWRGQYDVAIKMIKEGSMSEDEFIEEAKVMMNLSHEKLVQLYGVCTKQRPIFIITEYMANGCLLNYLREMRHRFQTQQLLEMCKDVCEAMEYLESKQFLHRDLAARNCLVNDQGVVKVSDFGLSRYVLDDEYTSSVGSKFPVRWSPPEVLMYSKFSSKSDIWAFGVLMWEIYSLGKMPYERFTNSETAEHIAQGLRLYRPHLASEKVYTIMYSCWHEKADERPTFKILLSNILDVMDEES

Molecular target: Recombinant Btk (Homo sapiens (Human), UniProt Q06187)
Assay: BTK kinase assay (TR-FRET)
Details: read-out: IC50 (nM) Btk; 1 hour pre-incubation, ATP at Km

C=CC(=O)Nc1ccccc1C1CCNc2c(C(N)=O)c(-c3ccc(C)c(OC)c3)nn21 (stereo not shown) [Compound 133, 7-(2-acrylamidophenyl)-2-(3-methoxy-4-methylphenyl)-4,5,6,7-tetrahydropyrazolo[1,5-a]pyrimidine-3-carboxamide]
IC50: 0.53 nM
